Some tests of the compounds listed are not included; inactive here does not mean inactive elsewhere.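 All cell lines were grown in 96-well plates and treated with compound for 48 hours. GI50 = concentration required for 50% inhibition of growth. The concentration for full growth arrest is given as TGI.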
Key:
Assay in all cases: NCI-60 cell line screen, 48 h
[1] = test system: MOLT-4 leukemia
[2] = test system: DLD-1 colon
[3] = test system: OVCAR-4 ovarian
[4] = test system: SR leukemia
[5] = test system: MALME-3M melanoma
[6] = test system: 786-0 renal
[7] = test system: HOP-62 NSCLC
[8] = test system: A498 renal
[9] = test system: SNB-19 CNS
[10] = test system: KM20L2 colon
[11] = test system: XF 498 CNS
[12] = test system: K-562 leukemia
[13] = test system: EKVX NSCLC
[14] = test system: LXFL 529 NSCLC
[15] = test system: COLO 205 colon
[16] = test system: UACC-62 melanoma
[17] = test system: HOP-18 NSCLC
[18] = test system: SF-539 CNS
[19] = test system: TK-10 renal
[20] = test system: M19-MEL melanoma
[21] = test system: HCT-116 colon
[22] = test system: NCI-H460 lung
[23] = test system: UO-31 renal
[24] = test system: DMS 114 small cell lung
[25] = test system: NCI-H522 lung
[26] = test system: M14 melanoma
[27] = test system: SK-MEL-28 melanoma
[28] = test system: HCC-2998 colon

Work on `ClCCCCC(CCl)NCCCl` (stereo unspecified) yielded a GI50 [1] of 21.4 µM, a TGI [1] greater than 100 µM and a GI50 [2] greater than 100 µM. For the same molecule, the TGI [2] was greater than 100 µM, the GI50 [3] was greater than 100 µM and the TGI [3] was greater than 100 µM. For the same molecule, the GI50 [4] was 6.63 µM, the TGI [4] was greater than 100 µM and the GI50 [5] was greater than 100 µM. For the same molecule, the TGI [5] was greater than 100 µM, the GI50 [6] was 41.3 µM and the TGI [6] was greater than 100 µM. For the same molecule, the GI50 [7] was 63.1 µM, the TGI [7] was greater than 100 µM and the GI50 [8] was greater than 100 µM. The TGI [8] was greater than 100 µM, the GI50 [9] was greater than 100 µM and the TGI [9] was greater than 100 µM. For the same molecule, the GI50 [10] was greater than 100 µM, the TGI [10] was greater than 100 µM and the GI50 [11] was greater than 100 µM. It also gave a TGI [11] greater than 100 µM, a GI50 [12] greater than 100 µM and a TGI [12] greater than 100 µM. It also gave a GI50 [13] greater than 100 µM, a TGI [13] greater than 100 µM and a GI50 [14] greater than 100 µM. The TGI [14] was greater than 100 µM, the GI50 [15] was greater than 100 µM and the TGI [15] was greater than 100 µM. It also gave a GI50 [16] of 31.9 µM, a TGI [16] greater than 100 µM and a GI50 [17] greater than 100 µM. It also gave a TGI [17] greater than 100 µM, a GI50 [18] of 42.3 µM and a TGI [18] greater than 100 µM. For the same molecule, the GI50 [19] was greater than 100 µM, the TGI [19] was greater than 100 µM and the GI50 [20] was greater than 100 µM. The TGI [20] was greater than 100 µM, the GI50 [21] was greater than 100 µM and the TGI [21] was greater than 100 µM. It also gave a GI50 [22] of 25.9 µM, a TGI [22] greater than 100 µM and a GI50 [23] greater than 100 µM. For the same molecule, the TGI [23] was greater than 100 µM, the GI50 [24] was 50.7 µM and the TGI [24] was greater than 100 µM. The GI50 [25] was 92.1 µM, the TGI [25] was greater than 100 µM and the GI50 [26] was greater than 100 µM. For the same molecule, the TGI [26] was greater than 100 µM, the GI50 [27] was greater than 100 µM and the TGI [27] was greater than 100 µM. It also gave a GI50 [28] greater than 100 µM and a TGI [28] greater than 100 µM.
